Source: the NIST ThermoML archive (doi:10.1021/je500918t)
± gives the expanded uncertainty stated by the source.

What was measured:
[1] = Molar enthalpy of transition or fusion; conditions: Crystal; DSC
[2] = Crystal; DTA

Molar enthalpy of transition or fusion [1] [kcal/mol]	Normal melting temperature [2] [°C]	SMILES
8.99 ± 0.287	153.1 ± 0.5	O=S(=O)(Nc1cccnc1Cl)c1ccccc1 [N-(2-chloro-3-pyridinyl)benzenesulfonamide]
7.36 ± 0.287	224.8 ± 0.5	Nc1ccc(S(=O)(=O)Nc2ccc(Cl)c(Cl)c2)cc1 [4-amino-N-(3,4-dichlorophenyl)benzenesulfonamide]
9.3 ± 0.311	172.1 ± 0.5	CCOc1ccc(NS(=O)(=O)c2ccc([N+](=O)[O-])cc2)cc1 [N-(4-ethoxyphenyl)-4-nitrobenzenesulfonamide]
8.7 ± 0.287	195.6 ± 0.5	Nc1ccc(S(=O)(=O)Nc2ccc(I)cc2)cc1 [4-amino-N-(4-iodophenyl)benzenesulfonamide]
